Holding throughout (test): FOREST: bead pull-down of RNA structure library v1, barcode microarray; U1A/LIN28A: 20 mM HEPES pH 7.5, 80 mM KCl, 20 mM NaCl, 10% glycerol, 2 mM DTT, 0.1 ug/uL BSA, 4 C; BG4/CIRBP/DHX36: 10 mM Tris-HCl pH 7.5, 100 mM KCl (or LiCl),; high values mean tight binding
One assay addresses T1, LIN28A (human?, UniProt Q9H9Z2 1-209).
T1 sequence: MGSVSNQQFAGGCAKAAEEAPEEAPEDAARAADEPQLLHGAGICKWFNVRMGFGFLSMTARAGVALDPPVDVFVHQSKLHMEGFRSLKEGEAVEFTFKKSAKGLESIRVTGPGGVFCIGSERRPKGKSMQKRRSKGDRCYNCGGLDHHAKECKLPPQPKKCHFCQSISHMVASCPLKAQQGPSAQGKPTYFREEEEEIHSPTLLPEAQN

For another assay, the target named is T2, CIRBP (Homo sapiens, UniProt Q14011 1-172).
T2 sequence: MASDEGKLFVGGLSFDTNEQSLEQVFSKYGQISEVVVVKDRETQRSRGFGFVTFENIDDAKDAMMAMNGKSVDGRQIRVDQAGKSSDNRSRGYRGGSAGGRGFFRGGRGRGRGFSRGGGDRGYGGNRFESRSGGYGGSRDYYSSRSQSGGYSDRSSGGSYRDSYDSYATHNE

A further assay concerns the target T3, DHX36 (Homo sapiens, UniProt Q9H2U1 1-1008).
T3 sequence: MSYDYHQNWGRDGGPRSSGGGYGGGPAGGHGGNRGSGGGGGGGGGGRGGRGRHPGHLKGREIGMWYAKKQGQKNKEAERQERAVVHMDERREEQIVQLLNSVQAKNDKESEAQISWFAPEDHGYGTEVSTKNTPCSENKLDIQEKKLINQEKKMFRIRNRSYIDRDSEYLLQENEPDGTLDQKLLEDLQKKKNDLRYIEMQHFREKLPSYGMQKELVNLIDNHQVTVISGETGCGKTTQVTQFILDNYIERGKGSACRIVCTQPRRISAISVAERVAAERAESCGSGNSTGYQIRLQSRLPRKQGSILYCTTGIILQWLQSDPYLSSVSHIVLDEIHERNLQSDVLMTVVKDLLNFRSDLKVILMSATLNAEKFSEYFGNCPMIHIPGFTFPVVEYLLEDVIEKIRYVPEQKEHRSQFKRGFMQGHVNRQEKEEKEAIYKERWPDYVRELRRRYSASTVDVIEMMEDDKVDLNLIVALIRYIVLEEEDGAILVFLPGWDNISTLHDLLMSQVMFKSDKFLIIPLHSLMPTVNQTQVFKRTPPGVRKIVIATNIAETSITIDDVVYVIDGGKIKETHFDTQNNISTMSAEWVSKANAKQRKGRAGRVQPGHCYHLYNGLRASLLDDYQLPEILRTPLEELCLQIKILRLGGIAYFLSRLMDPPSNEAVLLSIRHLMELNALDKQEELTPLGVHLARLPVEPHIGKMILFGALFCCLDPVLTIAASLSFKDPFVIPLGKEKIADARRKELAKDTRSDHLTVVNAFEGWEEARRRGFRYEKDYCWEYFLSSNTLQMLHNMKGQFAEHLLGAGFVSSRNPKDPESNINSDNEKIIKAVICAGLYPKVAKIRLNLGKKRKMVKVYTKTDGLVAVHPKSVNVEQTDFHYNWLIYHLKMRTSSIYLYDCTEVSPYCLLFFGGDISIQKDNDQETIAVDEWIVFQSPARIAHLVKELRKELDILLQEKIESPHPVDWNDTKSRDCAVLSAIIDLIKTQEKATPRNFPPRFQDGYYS

The list shows a part of the results.

B1: hsa-mir-4477b (structured_RNA)
RNA: GGGAACGUUCUUCAGGCGCGGGUAAUUCGGUGUACGAAGUUUCAGCUAAUAGCAAUCCUUAAAUGCCAUUAGCUGAAGCUUCGUGCAC
On to B1, for which the binding signal in the assay with LIN28A was -0.276 z-score; in the assay with CIRBP, 0.823 z-score; with DHX36, -0.16 z-score.

B2: hsa-mir-548x (structured_RNA)
RNA: GGGAAUGACGCCUGGGGAUUGAUCACUUGGUGUACGAAGUUUCAGCUUUGCGUUACUUUCAAUCGUAAAGCUGAAGCUUCGUGCAC
For the molecule B2, the binding signal with LIN28A is -0.286 z-score; in the assay with CIRBP it was 0.0938 z-score; in the assay with DHX36 it was -0.52 z-score.

B3: hsa-mir-7975 (structured_RNA)
RNA: GGGACCCUUAUGGGAGAUCCCCGUUCCUGGUGUACGAAGUUUCAGCAGGACAGGGGAUUUAUCUCCCAAGGGAGGUCCCCUGAUGCUGAAGCUUCGUGCAC
Take B3: the binding signal is -0.279 z-score with LIN28A, 0.18 z-score with CIRBP and 0.798 z-score with DHX36.

B4: hsa-mir-6781 (structured_RNA)
RNA: GGGAGCUGAUAGCCCUGGUUUCAUAAAGGGUGUACGAAGUUUCAGCGCGUCGCUUCUCCCUAAUGUUGCCGCUGAAGCUUCGUGCAC
As to B4, the figures for the binding signal with LIN28A, in the assay with CIRBP and with DHX36 were -0.292 z-score, -0.0946 z-score and -0.0935 z-score, respectively.

B5: hsa-mir-3938 (structured_RNA)
RNA: GGGAAACCGCAGAAACCGAUAAAGUGGCGGUGUACGAAGUUUCAGCAAUUUUUUUUUAAUUUAAAAAAUUGCUGAAGCUUCGUGCAC
As for B5, the binding signal with LIN28A was -0.275 z-score; with CIRBP, -0.572 z-score; with DHX36, -0.175 z-score.

B6: hsa-mir-1247 (structured_RNA)
RNA: GGGAAAGACUCCCCAGUGAGGCUCUCAGGGUGUACGAAGUUUCAGCCGGACGUUGCUCUCUACCCCGGCUGAAGCUUCGUGCAC
Take B6: the results for the binding signal with LIN28A, in the assay with CIRBP and in the assay with DHX36 were -0.28 z-score, 0.398 z-score and -0.404 z-score, respectively.

B7: hsa-mir-4469 (structured_RNA)
RNA: GGGACGAGUCACCCCUGAGUCCUUGUUCGGUGUACGAAGUUUCAGCUGGCGGCGGCGAGGACACCGCCGCUGCUGAAGCUUCGUGCAC
On to B7, for which the binding signal is -0.277 z-score with LIN28A, 0.447 z-score with CIRBP and 0.588 z-score with DHX36.

B8: hsa-mir-5590 (structured_RNA)
RNA: GGGAAUCCGGCCCAAGAUCAUUUCGCUAGGUGUACGAAGUUUCAGCUAUUGUGUUGAUCAACAAUAGCUGAAGCUUCGUGCAC
With B8, the figures for the binding signal with LIN28A, with CIRBP and with DHX36 were -0.289 z-score, -0.357 z-score and -1.2 z-score, respectively.

B9: hsa-mir-4665 (structured_RNA)
RNA: GGGAACGUGGUAAGUCUGGAUCGAAACCGGUGUACGAAGUUUCAGCCGAGCCGCUUCCUCACGGCUCGGCUGAAGCUUCGUGCAC
Take B9: the values for the binding signal with LIN28A, in the assay with CIRBP and in the assay with DHX36 were -0.285 z-score, 0.934 z-score and 0.206 z-score, respectively.

B10: hsa-mir-515-1_515-2 (structured_RNA)
RNA: GGGACAAUGGGUGUCCGAGGCUAUAAUCGGUGUACGAAGUUUCAGCUUUCUGUUGUCUGAAAGCAGAGCUGAAGCUUCGUGCAC
With B10, the binding signal is -0.289 z-score with LIN28A, 0.595 z-score with CIRBP and 0.0127 z-score with DHX36.

B11: hsa-mir-891a (structured_RNA)
RNA: GGGACAAGCUGUCUAACCUGGACACUGAGGUGUACGAAGUUUCAGCCACUGAUUCAGUAAAAUACUCAGUGGCUGAAGCUUCGUGCAC
With B11, the results for the binding signal with LIN28A, in the assay with CIRBP and in the assay with DHX36 were -0.278 z-score, -0.941 z-score and 0.0953 z-score, respectively.

B12: hsa-mir-7705 (structured_RNA)
RNA: GGGAACGAGCGUCACAUCGUAAUCGAUUGGUGUACGAAGUUUCAGCUCUGUUUUAAGUAACAGAGCUGAAGCUUCGUGCAC
For the molecule B12, the results for the binding signal with LIN28A, with CIRBP and with DHX36 were -0.297 z-score, 0.759 z-score and 0.444 z-score, respectively.

B13: PARIS_ID46 (structured_RNA)
RNA: GGGAAGGCAAAUCUCUGAUUCGUCCUGCGGUGUACGAAGUUUCAGCGUAGGUGUCUUCACCUGCGCUGAAGCUUCGUGCAC
Turning to B13, the values for the binding signal in the assay with LIN28A, with CIRBP and in the assay with DHX36 were -0.665 ± 0.523 z-score, 0.11 ± 0.948 z-score and -0.242 ± 0.367 z-score, respectively.
